Consider 2 molecules from patent EP3546476A1 (Repligen Corporation, dated 2019).

This experiment concerns the target Cetuximab (IgG1). The experiment can be described thus: SPR, Biacore 3000, CM5 chip, 25 °C, Langmuir 1:1 model. A general note: In SPR one partner is held on a chip, and binding of the other changes the refractive index at the surface.

A word on the Kd: it is a measure of binding affinity in units of concentration.

B1: cs14 (designed binder)
chain: IAAKHDKDQQAAFYEILHLPNLTEDQRNAFIQSLRDDPSVSLEILGEAKKLNDAQAPPWSHPQFEK
With B1, the Kd was 2.9 nM.

B2: cs26 (designed binder)
chain: IAAQHDKDQQAAFYEILHLPNLTEEQRNAFIQSLRDDPSVSLEILAEAKKLNDAQAPKWSHPQFEK
B2: the Kd was 6.5 nM.
